{
  "sequences": {"note": "The chains behind the UniProt entries cited, without tags or fusion partners. Residues count along the entry.", "UniProt P35968, 20-764 limits assumed": "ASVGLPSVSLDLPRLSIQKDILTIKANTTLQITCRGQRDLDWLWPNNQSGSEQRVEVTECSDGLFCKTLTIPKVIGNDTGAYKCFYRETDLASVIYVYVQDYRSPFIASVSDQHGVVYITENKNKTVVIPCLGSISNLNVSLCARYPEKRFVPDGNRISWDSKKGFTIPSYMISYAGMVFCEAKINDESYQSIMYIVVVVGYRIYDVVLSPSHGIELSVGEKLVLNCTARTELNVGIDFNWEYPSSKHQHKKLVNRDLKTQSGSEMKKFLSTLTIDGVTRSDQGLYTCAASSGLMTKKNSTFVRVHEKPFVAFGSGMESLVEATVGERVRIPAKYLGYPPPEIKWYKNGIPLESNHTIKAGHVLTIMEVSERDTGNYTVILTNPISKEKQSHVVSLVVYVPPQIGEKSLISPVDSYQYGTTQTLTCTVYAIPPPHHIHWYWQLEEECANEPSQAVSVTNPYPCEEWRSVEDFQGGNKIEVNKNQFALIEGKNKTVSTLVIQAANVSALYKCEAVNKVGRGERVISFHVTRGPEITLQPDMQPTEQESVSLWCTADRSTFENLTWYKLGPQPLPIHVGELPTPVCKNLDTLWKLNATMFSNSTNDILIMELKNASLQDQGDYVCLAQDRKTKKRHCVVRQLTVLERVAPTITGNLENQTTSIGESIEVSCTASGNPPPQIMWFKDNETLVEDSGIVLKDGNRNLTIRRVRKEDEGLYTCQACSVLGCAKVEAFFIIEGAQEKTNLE"},
  "source": "patent US20040210041A1",
  "about": "(published 2004)",
  "target": "T1, Soluble KDR receptor (UniProt P35968 20-764, limits assumed)",
  "T1 construct": "May be the KDR-Fc fusion",
  "experiment": "SPR (Biacore 3000), soluble KDR immobilised",
  "data": [
    {"binder": "AQEPEGYAYWEVITLYHEEDGDGGK (Ac-; -NH2, also called P9-D; monomeric P9)", "note": "[P9]", "values": [
      {"measurement": "Kd", "result": 0.732, "unit": "µM"}
    ]},
    {"binder": "AQAFPRFGGDDYWIQQYLRYTDGGK (Ac-; -NH2, also called P10-D; monomeric P10)", "note": "[P10]", "values": [
      {"measurement": "Kd", "result": 1.26, "unit": "µM"}
    ]}
  ]
}
